Laboratory results reported in patent US20130336924A1.

Sequences of proteins named here, by UniProt entry; tags and fusion partners are left off. Residues count along the entry.
UniProt P40189, 23-918 limits assumed: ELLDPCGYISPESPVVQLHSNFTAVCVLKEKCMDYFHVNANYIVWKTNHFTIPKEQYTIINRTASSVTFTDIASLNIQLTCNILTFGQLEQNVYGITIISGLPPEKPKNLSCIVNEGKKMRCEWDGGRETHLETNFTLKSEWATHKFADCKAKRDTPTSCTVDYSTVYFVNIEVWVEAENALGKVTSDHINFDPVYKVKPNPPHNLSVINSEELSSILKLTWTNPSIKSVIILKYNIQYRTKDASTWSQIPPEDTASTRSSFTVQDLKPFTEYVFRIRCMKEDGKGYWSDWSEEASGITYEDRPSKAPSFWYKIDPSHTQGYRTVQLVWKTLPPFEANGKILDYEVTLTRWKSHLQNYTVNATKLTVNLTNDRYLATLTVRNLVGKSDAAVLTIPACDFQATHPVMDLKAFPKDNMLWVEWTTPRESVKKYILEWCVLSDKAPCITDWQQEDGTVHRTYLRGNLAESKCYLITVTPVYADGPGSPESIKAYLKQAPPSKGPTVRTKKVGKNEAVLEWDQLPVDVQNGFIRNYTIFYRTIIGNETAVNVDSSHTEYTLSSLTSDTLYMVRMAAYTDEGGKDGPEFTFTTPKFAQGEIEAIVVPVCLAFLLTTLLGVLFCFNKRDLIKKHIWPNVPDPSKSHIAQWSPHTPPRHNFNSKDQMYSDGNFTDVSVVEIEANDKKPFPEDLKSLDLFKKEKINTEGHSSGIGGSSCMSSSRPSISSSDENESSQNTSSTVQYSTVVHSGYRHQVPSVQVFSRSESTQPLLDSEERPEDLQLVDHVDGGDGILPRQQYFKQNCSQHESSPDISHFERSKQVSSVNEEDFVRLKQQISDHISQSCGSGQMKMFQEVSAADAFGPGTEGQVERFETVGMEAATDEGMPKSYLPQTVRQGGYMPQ

Biological target: gp130 on HEK-Blue IL-6 cells (human) (UniProt P40189)
Assay: cell-based or functional assay

IL-6 (from UniProt P05231 30-212) (ligand)
EC50, IL-6-induced SEAP reporter in HEK-Blue IL-6 cells (agonist activity): 1 pM
